Source: publication PMC11571015, “Hybrids of Membrane-Translocating Antimicrobial Peptides Show Enhanced Activity through Membrane Permeabilization” (ACS Medicinal Chemistry Letters, 2024)

Assays:
[1] = test system: E. coli; type: cell-based, E. coli (Top10 Strain); conditions: median MIC; microbroth dilution, 1:2 serial dilution 18.2 to 1.8x10-2 μM, 4 × 10^6 CFU/mL, 1 h 37°C in wash buffer pH 7.4, then TSB overnight (18-24 h), OD600; triplicate per plate; mixture: each peptide at the reported concentration
Description: (§1) Supplemental Information for Trevellin et al.
(§2) Peptide design and preparation […]
(§3) synthesized by GenScript (Piscataway, NJ) at >95% purity determined by HPLC and dissolved in DI water. Concentrations were measured by triplicate tryptophan absorbance readings at 280 nm (ε=5700 M–1cm–1, l=1 cm) using a ThermoScientific NanoDrop 2000 (Waltham, MA). Buforin II (BF2) included an F10W mutation used in many previous studies1-5 to allow for concentration measurements.
(§4) Bacteria included E. coli (Top10 Strain, Invitrogen/ThermoFisher) containing a plasmid for ampicillin resistance (Novagen) and/or B. subtilis (ATCC #6051). Bacterial growth was performed in TSB (trypticase soy broth) prepared at 3% w/v (30 g of media in 1 L) from BD Difco unless otherwise noted. Overnight cultures were picked from petri dishes or frozen stock and grown for 14-16 hours at 37 °C in TSB with shaking. E. coli overnight cultures were incubated with 25 μg/mL ampicillin. The overnight cultures were then diluted 1:100 in 25 mL TSB and incubated at 37 °C with shaking for 2.5 h. […]
(§5) Microbroth dilution assays were used to determine the minimum inhibitory concentration (MIC) of each peptide for E. coli and B. subtilis (ATCC #6051). […] After incubation, OD600nm were measured using the SpectraMax M3 microplate reader (Molecular Devices). […]

[2] = test system: B. subtilis; type: cell-based, B. subtilis (ATCC #6051); conditions: 1 h, pH 7.4
Description: as §1, §2, §3, §4, §5

CC[C@H](C)[C@H](NC(=O)[C@H](CCCNC(=N)N)NC(=O)[C@@H](NC(=O)[C@H](CCCCN)NC(=O)[C@H](CCCCN)NC(=O)[C@H](CC(N)=O)NC(=O)[C@H](CC(=O)O)NC(=O)[C@H](CCCNC(=N)N)NC(=O)[C@H](C)N)[C@@H](C)O)C(=O)N[C@@H](Cc1c[nH]c2ccccc12)C(=O)N1CCC[C@H]1C(=O)N[C@@H](CCCNC(=N)N)C(=O)N[C@@H](Cc1c[nH]cn1)C(=O)N[C@@H](CC(C)C)C(=O)N[C@@H](CCC(N)=O)C(=O)N[C@@H](CC(C)C)C(=O)N[C@@H](C)C(=O)N[C@H](C(=O)N[C@@H](CCCNC(=N)N)C(=O)N[C@@H](CC(N)=O)C(=O)O)C(C)C [DesHDAP1, reference compound]
MIC against E. coli [1]: >18.2 µM | MIC against B. subtilis [2]: >18.2 µM
